Test results taken from patent US9913876B2, “Biogel” (Haemostatix Limited, priority 2006, dated 2018).

Chains of the proteins cited; added tags and fusions are not shown. Residues count along the entry.
UniProt P02675, 31-491: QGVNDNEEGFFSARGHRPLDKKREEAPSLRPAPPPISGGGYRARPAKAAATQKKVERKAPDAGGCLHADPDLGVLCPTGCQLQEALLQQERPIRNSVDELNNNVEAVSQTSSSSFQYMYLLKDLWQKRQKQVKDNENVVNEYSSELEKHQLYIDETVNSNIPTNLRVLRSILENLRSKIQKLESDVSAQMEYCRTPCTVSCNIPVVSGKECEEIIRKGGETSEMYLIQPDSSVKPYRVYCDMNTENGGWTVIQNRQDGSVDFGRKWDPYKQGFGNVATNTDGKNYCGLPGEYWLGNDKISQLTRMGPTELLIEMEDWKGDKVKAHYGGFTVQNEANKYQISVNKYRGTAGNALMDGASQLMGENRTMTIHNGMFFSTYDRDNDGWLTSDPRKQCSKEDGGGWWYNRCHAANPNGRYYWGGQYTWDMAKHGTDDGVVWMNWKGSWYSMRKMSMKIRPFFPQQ
UniProt P02679, 27-437 isoform P02679-2 limits assumed: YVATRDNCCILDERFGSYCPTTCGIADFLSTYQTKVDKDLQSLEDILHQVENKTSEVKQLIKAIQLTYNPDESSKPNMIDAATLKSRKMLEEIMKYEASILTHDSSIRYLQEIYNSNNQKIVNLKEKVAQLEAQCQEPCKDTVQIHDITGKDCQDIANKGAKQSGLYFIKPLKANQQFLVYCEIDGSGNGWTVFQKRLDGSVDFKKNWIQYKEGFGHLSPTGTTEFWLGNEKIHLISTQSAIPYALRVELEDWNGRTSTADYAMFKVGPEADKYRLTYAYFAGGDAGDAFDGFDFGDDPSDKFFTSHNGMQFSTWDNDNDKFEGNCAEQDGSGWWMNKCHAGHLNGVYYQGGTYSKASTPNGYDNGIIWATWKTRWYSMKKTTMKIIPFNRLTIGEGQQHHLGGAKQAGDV

Legend:
human fibrinogen [1] = target: T1, human fibrinogen (Homo sapiens, UniProt P02675+P02679); test: Gel formation on adding peptide-modified HSA to fibrinogen solution (Example 1); type: biochemical; conditions: 5 μl peptide-modified HSA (7 mg/ml) added to 0.3 ml fibrinogen solution 16 mg/ml; absence of thrombin
T1 construct: purchased Scottish National Blood Transfusion Service, Edinburgh, Scotland
Protocol: Human serum albumin (HSA) was reacted with a 40-fold molar excess of the linker succinimidyl-4-(N-maleimidomethyl)cyclohexane-1-carboxylate (SMCC) at pH 7.4. The modified protein (HSA-SMCC) was purified and it was determined that on average one mole of HSA was modified with 18 moles of SMCC. Either GPRPGGGGGGC (B10; SEQ ID NO: 24) or LVPRGPRPGGGGGGC (TC-15; SEQ ID NO: 25) peptide was added to HSA-SMCC at 1.5 mole excess in relation to maleimide moieties. The peptide-modified HSA protein was then purified from un-reacted peptide and stored at −80° C. at 7 mg/ml. Lyophilised human fibrinogen was solubilized in water at 16 mg/ml as described by supplier (Scottish National Blood Transfusion service).
The exposed GPRP peptide sequence is known to bind to the “a” pocket within the carbonyl region of the two distal domains (D) of fibrinogen (FIG. 1b). It is believed that the HSA modified with multiple exposed GPRP sequences (B10) acts as a branching point for polymerisation of fibrinogen (FIG. 1c). The gel is formed in the absence of thrombin.

human fibrinogen [2] = target: T1, human fibrinogen; test: Visual determination of gel formation (polymerisation of fibrinogen) after mixing fibrinogen with HSA solutions (Example 2); type: biochemical; conditions: 25 ul sample mixed with 0.2 ml fibrinogen at 8, 16, 32 or 64 mg/ml; after 0.5 h at room temperature
Protocol: Human serum albumin (HSA) at 10 mg/ml was reacted with a 5, 10, 20 or 40-fold molar excess of the linker sulfosuccinimidyl-4-(N-maleimidomethyl)cyclohexane-1-carboxylate (Sulfo-SMCC) at pH 7.4 with a total volume of 0.7 ml. The modified protein (HSA-SMCC) was purified by a Zebra™ Desalt Spin Column (Pierce, Rockford, Ill.) and it was determined that on average one mole of HSA was modified with 5, 8, 16 or 18 moles of Sulfo-SMCC, respectively. To determine the number of maleimide groups bound per HSA molecule, a sample of 3 nmoles of HSA was incubated with a known amount of cysteine (100 nmoles) in buffer at room temperature for 30 min. The remaining cysteine was then reacted with 1 mmol of 5,5-dithiobis(2-nitrobenzoate) (DTNB) for 20 min and A412 was measured. The maleimide level was calculated by comparing the absorbance of the control and protein samples. Either GPRPGGGGGGC (B10; SEQ ID NO: 24) or LVPRGPRPGGGGGGC (TC-15; SEQ ID NO: 25) peptide was added to HSA-SMCC at 1.5 mole excess in relation to maleimide moieties. […] The concentration of fibrinogen and albumin was determined from the absorbance at 280 nm (A280) using a conversion factor of 1% Fibrinogen E280=15 and 1% HSA E280=13.8
The polymerisation of fibrinogen was initially monitored visually after the mixing of fibrinogen with HSA solutions. […] The formation of a gel was visually determined after 0.5 h at room temperature.

Substance | gel formation (human fibrinogen [1]) | formation of a gel (polymerisation of fibrinogen), visually determined (human fibrinogen [2])
B10-HSA: HSA-SMCC (on average 18 moles SMCC per mole HSA) conjugated with peptide GPRPGGGGGGC (B10; SEQ ID NO: 24) | an instant gel was observed | 
TC-15: HSA-SMCC conjugated with blocked precursor peptide LVPRGPRPGGGGGGC (TC-15; SEQ ID NO: 25) | no gel was observed | 
unmodified HSA: Human serum albumin without linker or peptide, used as control [reference compound] |  | no gel formation was observed
